Reference: BindingDB's records for patent US9453017 (Vanderbilt University, 2016)

By UniProt entry, the sequences of proteins in these tests, tags left out. Where a name states a change or a piece, a line headed by the entry shows the natural chain unless it says otherwise.
UniProt O14939: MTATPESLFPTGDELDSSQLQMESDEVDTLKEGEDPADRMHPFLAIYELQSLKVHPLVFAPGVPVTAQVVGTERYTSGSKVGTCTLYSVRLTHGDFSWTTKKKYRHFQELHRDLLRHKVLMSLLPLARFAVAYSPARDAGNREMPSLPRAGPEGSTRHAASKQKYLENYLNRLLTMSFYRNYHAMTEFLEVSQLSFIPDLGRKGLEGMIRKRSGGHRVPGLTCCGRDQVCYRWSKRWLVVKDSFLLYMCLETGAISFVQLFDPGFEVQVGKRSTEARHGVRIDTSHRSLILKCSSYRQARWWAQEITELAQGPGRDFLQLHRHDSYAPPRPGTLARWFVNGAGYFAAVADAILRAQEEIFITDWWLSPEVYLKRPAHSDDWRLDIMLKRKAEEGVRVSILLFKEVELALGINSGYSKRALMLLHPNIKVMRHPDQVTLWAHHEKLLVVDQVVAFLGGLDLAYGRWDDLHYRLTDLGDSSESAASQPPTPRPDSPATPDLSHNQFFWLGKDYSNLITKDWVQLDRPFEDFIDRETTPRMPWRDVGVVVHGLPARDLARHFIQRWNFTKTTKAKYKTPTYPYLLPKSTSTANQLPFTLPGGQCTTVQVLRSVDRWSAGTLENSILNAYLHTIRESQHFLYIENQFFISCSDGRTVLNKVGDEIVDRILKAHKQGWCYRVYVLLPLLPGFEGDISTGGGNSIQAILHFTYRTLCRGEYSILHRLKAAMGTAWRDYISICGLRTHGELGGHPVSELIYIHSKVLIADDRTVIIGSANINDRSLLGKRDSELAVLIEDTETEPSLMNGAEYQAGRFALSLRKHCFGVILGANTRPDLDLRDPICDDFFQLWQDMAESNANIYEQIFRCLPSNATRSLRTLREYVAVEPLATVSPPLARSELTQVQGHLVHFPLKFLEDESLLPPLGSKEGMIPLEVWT

Molecular target: Phospholipase D2 (Homo sapiens, UniProt O14939)

In the case of `O=C(NCCN1CCC2(CC1)CNC(=O)N2c1cccc(F)c1)c1ccc2ccccc2c1` [US9453017, 1], the IC50 is reported as 100 nM.
